Laboratory results published in US20230285372A1, “Pharmaceutical use of (E)-3-arylheterocyclylprop-2-enoic acid derivatives” (MEDCURIUS INC., priority 2020, published 2023).

Test system: tyrosine hydroxylase (TH)
Experiment: Tyrosine hydroxylase (TH) level in midbrain, immunohistochemistry, MPTP mouse
Type: in vivo
Details: L-DOPA 10 mg/kg qd; vs model group
Source text: The core pathological change of Parkinson's disease is the loss of dopaminergic neurons. Tyrosine hydroxylase (TH), the rate-limiting enzyme in dopamine synthesis, is the landmark protein of the dopaminergic neurons. Therefore, the decrease in its level indicates the loss of the dopaminergic neurons. A key protein for the occurrence and development of Parkinson's disease is α-synuclein protein, and the abnormal modification (hyperphosphorylation) of this protein can inhibit microtubule polymerization, enhance oxidative stress, and thus accelerate the death of the dopaminergic neurons.
Male C57 mouse were screened for their motor function by a mouse rod-rotating test, and unqualified ones were excluded from the test. […] Compound I-5, the positive control drug levodopa (L-DOPA) and MPTP were prepared currently and ready to use. […]
Tissues from all the animals were collected on the second day after the end of the behavioral experiment. […] The level of tyrosine hydroxylase (TH), a marker protein of dopaminergic neurons, was detected by immumohistochemistry, and α-synuclein protein level and phosphorylation level of the protein were detected by Western blot.

N[C@@H](Cc1ccc(O)c(O)c1)C(=O)O [L-DOPA, levodopa, reference compound]
TH positive area of substantia nigra: no significant difference
